Key:
[1] = target: Rat GluR6 kainate receptors (Rattus norvegicus, UniProt P42260)
Source text: Tissue slice or whole cell electrophysiology as described by Yamada (Neurophysiology, 1994 and references therein) is used to measure agonist, partial agonist, or antagonist properties of drugs for glutamate receptors. […] This is distinct from the binding affinity.
Rat GluR6 kainate receptors were expressed in HEK 293 cells in culture and evaluated by the patch clamp technique.

By UniProt entry, the sequences of proteins in these tests, tags left out. Residues count along the entry.
UniProt P42260, 32-908: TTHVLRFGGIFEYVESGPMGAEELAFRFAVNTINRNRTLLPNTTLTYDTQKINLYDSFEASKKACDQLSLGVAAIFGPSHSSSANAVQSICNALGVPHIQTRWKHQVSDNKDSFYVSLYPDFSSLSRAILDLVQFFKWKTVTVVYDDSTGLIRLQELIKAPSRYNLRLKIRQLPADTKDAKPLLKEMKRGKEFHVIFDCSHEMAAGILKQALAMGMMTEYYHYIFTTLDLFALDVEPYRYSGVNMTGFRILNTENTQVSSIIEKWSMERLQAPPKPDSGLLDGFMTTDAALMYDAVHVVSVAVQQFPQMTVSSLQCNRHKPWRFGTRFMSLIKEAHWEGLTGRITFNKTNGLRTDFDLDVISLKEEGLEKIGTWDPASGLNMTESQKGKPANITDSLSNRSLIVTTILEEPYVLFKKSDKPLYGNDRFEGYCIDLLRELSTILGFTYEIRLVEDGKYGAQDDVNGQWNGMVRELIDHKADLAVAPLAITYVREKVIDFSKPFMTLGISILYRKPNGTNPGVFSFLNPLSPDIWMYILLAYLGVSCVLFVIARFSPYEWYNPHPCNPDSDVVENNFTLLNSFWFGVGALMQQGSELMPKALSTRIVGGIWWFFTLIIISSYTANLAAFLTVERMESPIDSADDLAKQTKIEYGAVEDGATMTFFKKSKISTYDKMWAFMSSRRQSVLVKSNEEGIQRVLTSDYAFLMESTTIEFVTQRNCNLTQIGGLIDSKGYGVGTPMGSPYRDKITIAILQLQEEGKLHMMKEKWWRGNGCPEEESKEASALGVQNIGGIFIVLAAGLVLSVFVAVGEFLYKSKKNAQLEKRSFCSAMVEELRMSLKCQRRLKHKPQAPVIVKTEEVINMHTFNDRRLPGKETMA

Sprague-Dawley rats = test: Rat allodynia/hyperalgesia pain model after capsaicin; format: in vivo; conditions: summary
Experimental: This test is to determine the extent of protection by a test compound to neuropathic pain sensations. With the rat standing on an elevated perforated floor, mechano-allodynia is measured by applying from beneath a graded series of von Frey hairs to the mid-plantar region of the effected paws. The hair that evokes at least one withdrawal response is designated the threshold level when compared to the sham treated nerve. Alternatively, the paw can be illuminated with a noxious radiant heat and the time to paw withdrawal is measured.
The model is described by Bennett, Neuro. Report 5, 1438-1440 (1994), and references cited therein. […]
A total of 40 adult male Sprague-Dawley rats, 250-300 g, were used. Baseline measures of withdrawal responses evoked by heat and mechanical stimuli were determined for each hind paw and obtained for at least 4 consecutive days until withdrawal and latency responses were stable. […] Each group was randomly assigned to 1 of 4 treatment conditions: vehicle, 10, 50, or 100 mg/kg compound i.p. On test day, withdrawal responses to heat and mechanical stimuli were measured before intraperitoneal injection of the treatment condition. […] Withdrawal responses to heat and mechanical stimuli were again measured 5 and 30 minutes post capsaicin. […]

Q: Which “block of current evoked by 300 mM kainate” value ([1]; 10 nM to 20 μM, rat GluR6 expressed in HEK 293 cells, patch clamp) does the source give for `C[C@H](C[C@H](N)C(=O)O)C(=O)O` [Compound 1, (2S,4R)-4-Methyl glutamic acid] here?
A: The value was “completely and reversibly blocked”.

Q: And the “modulation of kainate receptor” value ([1]; whole cell electrophysiology)?
A: Its value is “modulates”.

Q: What about the “dose at which activity was shown” value (Sprague-Dawley rats; i.p.) of the same compound?
A: The value was 50 mg/kg.

Q: And the duration of activity (Sprague-Dawley rats; parent compound)?
A: The duration of activity was “up to 30 minutes”.

Reference: US20020115721A1, “Esters of alkycarboxy amino acids as prodrugs of modulators of the kainate receptor” (Annovis, Inc., priority 2000, published 2002)
